# Values quoted from earlier work in patent US20040241244A1, “Neuronal growth enhancement by prostaglandin compositions and methods” (NexMed (Holdings) Inc., priority 2003, published 2004).
# Protein sequences, listed by entry. Tags and fused reporters are not part of them. Lines headed by an entry give the natural chain unless they say otherwise; changes in a name come on top.
# UniProt P32240: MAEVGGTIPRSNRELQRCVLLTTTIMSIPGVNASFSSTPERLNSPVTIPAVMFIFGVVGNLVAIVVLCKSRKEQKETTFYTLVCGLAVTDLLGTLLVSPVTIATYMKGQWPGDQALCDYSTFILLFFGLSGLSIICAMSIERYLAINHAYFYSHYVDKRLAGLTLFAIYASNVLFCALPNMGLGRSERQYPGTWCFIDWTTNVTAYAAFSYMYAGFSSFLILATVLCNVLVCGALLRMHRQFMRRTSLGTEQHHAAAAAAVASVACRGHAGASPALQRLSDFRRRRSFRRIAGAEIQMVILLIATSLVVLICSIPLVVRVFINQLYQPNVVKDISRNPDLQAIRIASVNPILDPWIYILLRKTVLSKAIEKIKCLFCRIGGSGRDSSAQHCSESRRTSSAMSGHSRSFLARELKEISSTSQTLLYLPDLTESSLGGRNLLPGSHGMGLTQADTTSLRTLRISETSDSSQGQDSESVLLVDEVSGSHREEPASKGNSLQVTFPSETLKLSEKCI
# Target: EP4 receptor (Mus musculus, UniProt P32240)
# Details: read-out: affinity for the EP4 receptor; cited from earlier work
smiles,measurement,value
"CCCCC[C@H](O)/C=C/[C@H]1[C@H](O)CC(=O)[C@@H]1C/C=C\CCCC(=O)O [PGE2, Prostaglandin E2]",Kd,~2 nM
